In PubChem BioAssay (NCATS):
Only a part is listed here, and it is no random draw. Records with an inconclusive call do not appear. The source made the active and inactive calls. Unless noted, the call rests on the fitted dose curve; in most records, active means well fitted curve in the direction sought with a large enough effect; inconclusive means small, poorly fitted or top-dose-only effect, or another doubt; inactive means no such curve, though single readings can be large; an effect the other way counts as inactive or inconclusive.

By UniProt entry, the sequences of proteins in these tests, tags left out.
UniProt P20594, whole entry: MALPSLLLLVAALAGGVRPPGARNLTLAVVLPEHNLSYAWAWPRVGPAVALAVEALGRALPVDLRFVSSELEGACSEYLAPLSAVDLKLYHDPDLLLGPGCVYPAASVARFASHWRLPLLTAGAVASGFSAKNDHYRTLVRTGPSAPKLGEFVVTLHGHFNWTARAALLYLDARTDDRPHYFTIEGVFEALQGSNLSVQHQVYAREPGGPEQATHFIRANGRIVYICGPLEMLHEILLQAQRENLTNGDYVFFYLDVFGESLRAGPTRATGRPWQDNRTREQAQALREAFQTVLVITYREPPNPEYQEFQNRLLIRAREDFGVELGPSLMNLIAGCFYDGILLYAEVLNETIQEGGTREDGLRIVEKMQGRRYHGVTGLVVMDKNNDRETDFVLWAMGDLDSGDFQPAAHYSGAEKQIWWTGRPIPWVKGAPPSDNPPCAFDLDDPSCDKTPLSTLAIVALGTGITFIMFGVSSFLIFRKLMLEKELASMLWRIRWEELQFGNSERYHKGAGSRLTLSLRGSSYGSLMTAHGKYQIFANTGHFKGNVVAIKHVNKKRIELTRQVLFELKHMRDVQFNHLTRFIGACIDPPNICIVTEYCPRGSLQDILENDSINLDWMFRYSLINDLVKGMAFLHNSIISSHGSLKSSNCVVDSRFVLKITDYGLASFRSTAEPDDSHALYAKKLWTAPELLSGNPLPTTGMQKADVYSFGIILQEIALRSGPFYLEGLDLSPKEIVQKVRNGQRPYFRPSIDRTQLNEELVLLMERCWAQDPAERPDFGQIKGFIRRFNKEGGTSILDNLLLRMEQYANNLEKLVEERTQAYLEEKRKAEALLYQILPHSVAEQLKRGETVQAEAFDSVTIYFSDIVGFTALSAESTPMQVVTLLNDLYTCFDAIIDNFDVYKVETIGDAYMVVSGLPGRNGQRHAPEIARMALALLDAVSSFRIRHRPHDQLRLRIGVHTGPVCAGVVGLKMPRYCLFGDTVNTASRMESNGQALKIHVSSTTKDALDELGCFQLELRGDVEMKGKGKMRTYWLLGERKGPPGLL
UniProt Q03431, whole entry: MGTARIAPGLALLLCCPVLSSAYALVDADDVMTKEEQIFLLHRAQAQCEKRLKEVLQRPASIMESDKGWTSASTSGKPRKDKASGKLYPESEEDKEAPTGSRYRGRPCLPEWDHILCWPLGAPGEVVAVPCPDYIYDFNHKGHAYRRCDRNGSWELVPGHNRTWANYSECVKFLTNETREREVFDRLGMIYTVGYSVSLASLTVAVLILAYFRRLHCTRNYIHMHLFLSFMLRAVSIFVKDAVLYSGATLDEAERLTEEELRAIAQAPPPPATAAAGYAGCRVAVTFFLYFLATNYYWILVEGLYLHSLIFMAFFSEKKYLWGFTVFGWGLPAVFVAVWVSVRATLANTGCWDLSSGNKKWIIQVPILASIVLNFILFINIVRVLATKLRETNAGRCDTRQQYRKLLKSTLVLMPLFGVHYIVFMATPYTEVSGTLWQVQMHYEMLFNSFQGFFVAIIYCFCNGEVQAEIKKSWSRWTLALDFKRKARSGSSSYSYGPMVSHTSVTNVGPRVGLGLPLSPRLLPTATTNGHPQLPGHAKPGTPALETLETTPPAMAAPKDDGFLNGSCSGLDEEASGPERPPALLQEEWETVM

What was measured:
[1] = qHTS of pediatric cancer cell lines to identify multiple opportunities for drug repurposing: Primary screen for TC32 cells (AID 1347089); details: TC32 Ewing sarcoma viability, CellTiter-Glo luminescence, 48 h; at 45.8 µM (top of the series) unless noted; further: on the % scale 0 is the no-effect control and ±100 the full control effect; nearly all actives have a fitted effect of over 60% in size
How it was run: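 qHTS, TC32, 48 h drug treatment, CellTiter-Glo luminescence as a proxy for metabolically active cells; primary top concentration 46 µM (MIPE 11-pt, NPC 8-pt); confirmatory 11-pt.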

[2] = qHTS of pediatric cancer cell lines to identify multiple opportunities for drug repurposing: Primary screen for SJ-GBM2 cells (AID 1347091); details: SJ-GBM2 viability, CellTiter-Glo luminescence, 48 h; at 46 µM (top of the series) unless noted;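 further: plate controls were DMSO neutral control for no effect and bortezomib for full effect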
How it was run: (§1)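 Cell viability, CellTiter-Glo luminescence; 500-1,000 cells/well, 8- or 11-point titration, 48 h compound exposure at 37 degrees C, 5% CO2. Controls: DMSO neutral, bortezomib 2.3 µM final as positive.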

[3] = qHTS of pediatric cancer cell lines to identify multiple opportunities for drug repurposing: Primary screen for A673 cells (AID 1347092); details: A673 Ewing sarcoma viability, CellTiter-Glo ATP luminescence, 48 h; at 46 µM (top of the series) unless noted; further: on the % scale 0 is the no-effect control and ±100 the full control effect; nearly all actives have a fitted effect of over 45% in size
How it was run: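 Luminescence from CellTiter-Glo, taken after 15 min at room temperature, served as the proxy for metabolically active cells following 48 h treatment. Both potency and efficacy were taken from curves fitted to the titration data.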

[4] = qHTS of pediatric cancer cell lines to identify multiple opportunities for drug repurposing: Primary screen for SK-N-MC cells (AID 1347093); further: potency means the concentration at half of the fitted maximal effect;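 on activity change, negative = cytotoxic: plate controls were DMSO neutral control for no effect and bortezomib for full effect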
[5] = qHTS of pediatric cancer cell lines to identify multiple opportunities for drug repurposing: Primary screen for U-2 OS cells (AID 1347096); details: U-2 OS viability, CellTiter-Glo luminescence, 48 h; at 46 µM (top of the series) unless noted;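 further: plate controls were DMSO wells for no effect and bortezomib positive control wells for full effect; nearly all actives have a fitted effect of over 50% in size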
How it was run: (§2)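 Cells (500-1,000/well) rested 5 h, then received compounds for 48 h; metabolically active cells were measured by CellTiter-Glo luminescence. Final concentrations spanned up to 46 µM (MIPE, 11-point) or 0.59 nM-46 µM (NPC, 8-point) in primary screens, 11-point in follow-ups.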

[6] = qHTS of pediatric cancer cell lines to identify multiple opportunities for drug repurposing: Primary screen for Saos-2 cells (AID 1347097); details: Saos-2 viability, CellTiter-Glo ATP luminescence, 48 h; at 46 µM (top of the series) unless noted; further: on the % scale 0 is the no-effect control and ±100 the full control effect; nearly all actives have a fitted effect of over 40% in size
How it was run: (§3)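 CRCs from 8- or 11-point titrations (lowest final 0.59 nM NPC, 0.78 nM MIPE). Cell viability: CellTiter-Glo after 48 h incubation, 15 min room-temperature development, luminescence imaging.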

[7] = qHTS of pediatric cancer cell lines to identify multiple opportunities for drug repurposing: Primary screen for SK-N-SH cells (AID 1347098); further: nearly all actives have a fitted effect of over 65% in size; further: potency means the concentration at half of the fitted maximal effect; on activity change, negative = cytotoxic: on the % scale 0 is the no-effect control and ±100 the full control effect
How it was run: as §2

[8] = qHTS of pediatric cancer cell lines to identify multiple opportunities for drug repurposing: Primary screen for NB1643 cells (AID 1347099); details: NB1643 neuroblastoma viability, CellTiter-Glo luminescence, 48 h; at 46 µM (top of the series) unless noted;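 further: plate controls were DMSO neutral control for no effect and bortezomib positive control for full effect; nearly all actives have a fitted effect of over 50% in size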
[9] = qHTS of pediatric cancer cell lines to identify multiple opportunities for drug repurposing: Primary screen for LAN-5 cells (AID 1347100); details: LAN-5 neuroblastoma viability, CellTiter-Glo luminescence, 48 h; at 46 µM (top of the series) unless noted;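 further: plate controls were DMSO neutral control for no effect and bortezomib positive control for full effect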
How it was run: as §2

[10] = qHTS of pediatric cancer cell lines to identify multiple opportunities for drug repurposing: Primary screen for Rh18 cells (AID 1347102); details: Rh18 rhabdomyosarcoma viability, CellTiter-Glo luminescence, 48 h; at 46 µM (top of the series) unless noted; further: on the % scale 0 is the no-effect control and ±100 the full control effect; nearly all actives have a fitted effect of over 65% in size
How it was run: as §2

[11] = qHTS of pediatric cancer cell lines to identify multiple opportunities for drug repurposing: Primary screen for MG 63 (6-TG R) cells (AID 1347105); details: MG 63 (6-TG R) viability, CellTiter-Glo, 48 h; at 92.7 µM (top of the series) unless noted; further: on the % scale 0 is the no-effect control and ±100 the full control effect; nearly all actives have a fitted effect of over 50% in size
How it was run: as §3

[12] = qHTS of pediatric cancer cell lines to identify multiple opportunities for drug repurposing: Primary screen for control Hh wild type fibroblast cells (AID 1347106); details: Hh wild-type fibroblast viability, CellTiter-Glo luminescence, 48 h; at 46 µM (top of the series) unless noted;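 further: on the % scale 0 is the no-effect control and ±100 the full control effect; a drop in luminescence marks cytotoxicity and a rise apparent proliferation; nearly all actives have a fitted effect of over 55% in size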
How it was run: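 Viability after 48 h compound treatment at 37C, 500-1,000 cells/well, read as ATP luminescence with CellTiter-Glo. Primary screens used 11-point (MIPE, 0.78 nM-46 µM) or 8-point (NPC, 0.59 nM-46 µM) final concentrations; follow-up screens used 11-point dilutions.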

[13] = qHTS of pediatric cancer cell lines to identify multiple opportunities for drug repurposing: Primary screen for DAOY cells (AID 1347090); details: DAOY medulloblastoma viability, CellTiter-Glo luminescence, 48 h; at 92.7 µM (top of the series) unless noted;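 further: plate controls were DMSO for no effect and bortezomib for full effect; nearly all actives have a fitted effect of over 55% in size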
How it was run: as §1

[14] = qHTS of pediatric cancer cell lines to identify multiple opportunities for drug repurposing: Primary screen for BT-37 cells (AID 1347094); details: BT-37 viability, CellTiter-Glo luminescence, 48 h; at 57.3 µM (top of the series) unless noted;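 further: plate controls were DMSO for no effect and bortezomib for full effect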
How it was run: as §3

[15] = qHTS of pediatric cancer cell lines to identify multiple opportunities for drug repurposing: Primary screen for NB-EBc1 cells (AID 1347095); details: NB-EBc1 neuroblastoma viability, CellTiter-Glo luminescence, 48 h; at 92.7 µM (top of the series) unless noted;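 further: plate controls were DMSO neutral control for no effect and bortezomib for full effect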
[16] = qHTS of pediatric cancer cell lines to identify multiple opportunities for drug repurposing: Primary screen for BT-12 cells (AID 1347101); details: BT-12 viability, CellTiter-Glo luminescence, 48 h; at 57.3 µM (top of the series) unless noted;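 further: plate controls were DMSO for no effect and bortezomib positive control for full effect; nearly all actives have a fitted effect of over 25% in size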
How it was run: as §2

[17] = qHTS of pediatric cancer cell lines to identify multiple opportunities for drug repurposing: Primary screen for OHS-50 cells (AID 1347103); details: OHS-50 osteosarcoma viability, CellTiter-Glo luminescence, 48 h; at 57.3 µM (top of the series) unless noted;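 further: plate controls were DMSO neutral control for no effect and bortezomib positive control for full effect; nearly all actives have a fitted effect of over 40% in size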
How it was run: as §2

[18] = qHTS of pediatric cancer cell lines to identify multiple opportunities for drug repurposing: Primary screen for RD cells (AID 1347104); details: RD rhabdomyosarcoma viability, CellTiter-Glo luminescence, 48 h; at 92.7 µM (top of the series) unless noted;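 further: plate controls were DMSO for no effect and bortezomib for full effect; nearly all actives have a fitted effect of over 55% in size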
How it was run: as §3

[19] = molecular target: Atrial natriuretic peptide receptor 2 (Homo sapiens) (UniProt P20594); test: Natriuretic polypeptide receptor (hNpr2) antagonism - Pilot subtype selectivity assay (AID 1347050; calls by dose curve; further: on the % scale 0 is the no-effect control and ±100 the full control effect); details: NPR2-expressing cells, cGMP antagonist-mode read-out; at 38.3 µM (top of the series)
How it was run: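 Pilot selectivity screen against hNpr2: HEK293 cGMP-sensor cells are treated with LOPAC1280 compounds, then with hNppC peptide at 1 nM final. The cGMP-driven luminescence change over 20 min at room temperature is the read-out.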

[20] = molecular target: Parathyroid hormone/parathyroid hormone-related peptide receptor (Homo sapiens) (UniProt Q03431); test: qHTS for PTHR1 Agonists: Optimization Screen against the NCGC LOPAC library (AID 1347079); details: HEK293 GP2 PTHR1 GloSensor cAMP luminescence, 1 h; at 57.1 µM (top of the series);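 further: GloSensor cAMP luminescence in HEK-293 GP2 cells expressing human PTHR1 with IBMX; 0% is about no effect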
How it was run: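 Agonist readout: GloSensor cAMP luminescence, read after 15 min at room temperature. HEK-293-derived GP2 line carries PTHR1; compounds tested as a titration for 1 hr at 37C in presence of IBMX. M-PTH (1-15) served as control.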

C/C1=C2N=C(/C=C3N=C(/C(C)=C4\[N-][C@@](C)([C@@H]5N=C1[C@](C)(CCC(=O)NC[C@@H](C)OP(=O)([O-])O[C@H]1[C@@H](O)[C@@H](n6cnc7cc(C)c(C)cc76)O[C@@H]1CO)[C@H]5CC(N)=O)[C@@](C)(CC(N)=O)[C@@H]4CCC(N)=O)[C@@](C)(CC(N)=O)[C@@H]\3CCC(N)=O)C(C)(C)[C@@H]/2CCC(N)=O.[C-]#N.[Co+3]
inactive: activity change, negative = cytotoxic [1] -13.3% | activity change, negative = cytotoxic [2] -4.12% | activity change, negative = cytotoxic [3] -18.6% | Potency [4] | activity change, negative = cytotoxic [5] -13.8% | activity change, negative = cytotoxic [6] -10.2% | Potency [7] | activity change, negative = cytotoxic [8] -11.8% | activity change, negative = cytotoxic [9] -17.5% | activity change, negative = cytotoxic [10] -19% | activity change, negative = cytotoxic [11] -37.9% [at 46 µM] | activity change, negative = cytotoxic [12] -19.2%

Cc1cccc([N+](=O)[O-])c1[N+](=O)[O-]
inactive: activity change, negative = cytotoxic [1] 10.1% [at 92.2 µM] | activity change, negative = cytotoxic [13] 15.5% | activity change, negative = cytotoxic [2] 17.1% [at 92.7 µM] | activity change, negative = cytotoxic [3] -17.9% [at 92.7 µM] | activity change, negative = cytotoxic [14] 16.1% [at 116 µM] | activity change, negative = cytotoxic [15] -11.2% | activity change, negative = cytotoxic [5] 10.6% [at 92.7 µM] | activity change, negative = cytotoxic [6] 27% [at 92.7 µM] | Potency [7] | activity change, negative = cytotoxic [8] 15.1% [at 92.7 µM] | activity change, negative = cytotoxic [9] 6.83% [at 92.7 µM] | activity change, negative = cytotoxic [16] 3.98% [at 116 µM] | activity change, negative = cytotoxic [10] 14.9% [at 92.7 µM] | activity change, negative = cytotoxic [17] 18.7% [at 116 µM] | activity change, negative = cytotoxic [18] 9.74% | activity change, negative = cytotoxic [11] -13.8% | activity change, negative = cytotoxic [12] 13.8% [at 92.7 µM]
active: Potency [4] 32.5 µM

CCOP(=O)(CC)Oc1ccc([N+](=O)[O-])cc1 (configuration not stated)
inactive: activity change, negative = cytotoxic [1] -14.4% | activity change, negative = cytotoxic [13] -11.8% [at 46 µM] | activity change, negative = cytotoxic [2] 41.5% | activity change, negative = cytotoxic [3] -11.7% | Potency [4] | activity change, negative = cytotoxic [14] -7.04% | activity change, negative = cytotoxic [15] 22.5% [at 46 µM] | activity change, negative = cytotoxic [5] -2.96% | activity change, negative = cytotoxic [6] -3.9% | Potency [7] | activity change, negative = cytotoxic [8] -9.54% | activity change, negative = cytotoxic [9] -8.59% | activity change, negative = cytotoxic [16] -4.79% | activity change, negative = cytotoxic [10] -7.97% | activity change, negative = cytotoxic [17] 23.3% | activity change, negative = cytotoxic [18] -3.38% [at 46 µM] | activity change, negative = cytotoxic [12] -8.71%

N#[O+].[C-]#N.[C-]#N.[C-]#N.[C-]#N.[C-]#N.[Fe+2].[Na+].[Na+]
inactive: activity change, negative = inhibition [19] 10.7% | activation [20] -31.2%

O=[N+]([O-])c1cccc([N+](=O)[O-])c1
inactive: activity change, negative = cytotoxic [1] 8.05% [at 92.2 µM] | activity change, negative = cytotoxic [13] 13% | activity change, negative = cytotoxic [2] 48.5% [at 92.7 µM] | activity change, negative = cytotoxic [3] 13.8% [at 92.7 µM] | Potency [4] | activity change, negative = cytotoxic [14] 15.1% [at 116 µM] | activity change, negative = cytotoxic [15] 32.9% | activity change, negative = cytotoxic [5] 6.72% [at 92.7 µM] | Potency [7] | activity change, negative = cytotoxic [8] 7.7% [at 92.7 µM] | activity change, negative = cytotoxic [9] -18.1% [at 92.7 µM] | activity change, negative = cytotoxic [10] 20% [at 92.7 µM] | activity change, negative = cytotoxic [17] 6.72% [at 116 µM] | activity change, negative = cytotoxic [18] 15.4% | activity change, negative = cytotoxic [11] 5.83% | activity change, negative = cytotoxic [12] -12.8% [at 92.7 µM]

CC1=C2[N-][C@@](C)([C@@H]3N=C(C(C)=C4N=C(C=C5N=C1[C@@](C)(CC(N)=O)[C@H]5CCC(N)=O)C(C)(C)[C@H]4CCC(N)=O)[C@](C)(CCC(=O)NC[C@@H](C)OP(=O)([O-])O[C@H]1[C@@H](O)[C@@H](n4cnc5cc(C)c(C)cc54)O[C@H]1CO)[C@H]3CC(N)=O)[C@@](C)(CC(N)=O)[C@@H]2CCC(N)=O.[C-]#N.[Co+3]
active: Potency [7] 10.5 µM
inactive: activity change, negative = cytotoxic [1] 3.61% [at 16 µM] | activity change, negative = cytotoxic [2] -15.8% [at 16.1 µM] | Potency [4] | activity change, negative = cytotoxic [14] -2.49% [at 20.1 µM] | activity change, negative = cytotoxic [5] -16% [at 16.1 µM] | activity change, negative = cytotoxic [9] -15% [at 16.1 µM] | activity change, negative = cytotoxic [10] -10.5% [at 16.1 µM] | activity change, negative = cytotoxic [12] -1.21% [at 16.1 µM]

OCCSCCO
inactive: activity change, negative = cytotoxic [1] 4.07% | activity change, negative = cytotoxic [13] 3.5% [at 46 µM] | activity change, negative = cytotoxic [2] 26.2% | activity change, negative = cytotoxic [3] -2.16% | Potency [4] | activity change, negative = cytotoxic [14] 14.5% | activity change, negative = cytotoxic [15] 26.8% [at 46 µM] | activity change, negative = cytotoxic [5] 6.05% | activity change, negative = cytotoxic [6] 41.8% | Potency [7] | activity change, negative = cytotoxic [8] 9.95% | activity change, negative = cytotoxic [9] 12.1% | activity change, negative = cytotoxic [16] 13.9% | activity change, negative = cytotoxic [10] 4.16% | activity change, negative = cytotoxic [17] 15.4% | activity change, negative = cytotoxic [18] 9.68% [at 46 µM] | activity change, negative = cytotoxic [11] 1.54% [at 46 µM] | activity change, negative = cytotoxic [12] 10.4%
